Yeast mating assay 1: variants of the scFv Ab-14

Antigen: PDVDLGDISGINAS, a 14-residue peptide of the SARS-CoV-2 spike HR2 region.

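The starting antibody came from a phage panning campaign against this peptide. In library AAYL50, one, two or three CDR residues were substituted; doubles and triples were drawn at random. The assay is AlphaSeq: two haploid yeast populations carry antibody and antigen on their surface. Mating (16 h, 30 °C) was followed by selection of diploids and sequencing of their barcodes. Each replicate has its own calibration line, from reference interactions of the BCL2 family. Mating was done three times.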

Parent scFv Ab-14: VH joined to VL by three GGGGS repeats. Changes lie in the light chain CDRs alone.
VH: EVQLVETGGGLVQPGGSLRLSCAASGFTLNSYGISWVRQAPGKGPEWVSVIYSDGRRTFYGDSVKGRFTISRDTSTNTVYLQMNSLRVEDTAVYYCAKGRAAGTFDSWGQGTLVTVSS
VL: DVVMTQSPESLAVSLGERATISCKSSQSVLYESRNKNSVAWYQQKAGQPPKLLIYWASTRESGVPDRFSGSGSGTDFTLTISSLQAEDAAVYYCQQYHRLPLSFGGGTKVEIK

Substitutions are numbered in sequence along the VL above, starting at 1 (not Kabat). Kd is apparent (estimated from mating counts) and averaged on the log scale over replicates with a signal. Smaller is tighter. An entry "no signal" has no value in the source: the pair was not observed among the diploids in any replicate. This suggests poor binding but is not conclusive. Empty control strains, which show no peptide, gave a signal in 18% of pairings with library AAYL50; the median was 15 µM and 95% of these signals were weaker than 970 nM. No background was subtracted. In this assay the parent's reference entry averaged 4.4 nM; its copy inside this library read 48 nM.

changes,Kd,detected
E32P+N35G+A57S,17 nM,3 of 3
S26H+V29W+R34I,13 µM,3 of 3
S25I+Y97W+H98K,13 µM,3 of 3
Y31P+N37V+W56S,2.2 nM,3 of 3
K36T+W56Y+H98S,2.0 nM,3 of 3
A57Q+S58W,1.2 mM,1 of 3
V29A+A40V+S62G,8.4 µM,2 of 3
S28D+L30G+S62K,5.8 nM,3 of 3
Y31V+L102H+S103P,no signal,0 of 3
Y31G+S33G+R34N,1.1 nM,3 of 3
K24A+N35P+P101K,2.8 µM,1 of 3
Q27W+S58F+L100M,15 µM,3 of 3
R34I+N37L+Q95F,no signal,0 of 3
R34C+R60Y+P101T,no signal,0 of 3
Q95N+Q96H+R99V,no signal,0 of 3
S25I+R34T+N35L,3.0 nM,3 of 3
S28G+A40Q+H98G,10 nM,3 of 3
E32M+S33C+W56C,no signal,0 of 3
S33C+V39F,7.9 nM,3 of 3
Q96N+L102E,48 µM,1 of 3
L30Q+N37H+H98G,no signal,0 of 3
S38T+L100N+S103Y,3.2 µM,3 of 3
N35S+H98T+S103Q,no signal,0 of 3
S25W+S28R+S103W,26 µM,1 of 3
E32R+R34I+Y97A,no signal,0 of 3
K24I+V39I+E61A,12 nM,3 of 3
V39M+T59Q+E61K,4.1 µM,3 of 3
Y31S+S58K+Q96H,410 nM,3 of 3
K24Q+S33R+E61M,490 nM,2 of 3
R34T+R60P,380 nM,3 of 3
Q27M+Y97H+P101L,290 nM,3 of 3
S33D+R34F+A57F,no signal,0 of 3
Q27L+V39N+W56H,30 nM,3 of 3
S26Y+S58W+Y97C,25 µM,1 of 3
N37E+S62T+H98G,96 nM,3 of 3
N35R+Q96G+R99P,no signal,0 of 3
E61Y+S62N+L102W,48 µM,2 of 3
V29H+Y31A+N37A,79 nM,3 of 3
S28H+N35T+W56N,210 nM,1 of 3
Q27N+S58M+R60S,100 µM,2 of 3
Q27N+T59S,120 nM,3 of 3
S25M+S28P,980 nM,1 of 3
R34C+Q95A+Y97F,19 nM,3 of 3
S25I+Q27P+R34F,38 µM,3 of 3
K24I+V29H+P101E,no signal,0 of 3
K36S+N37G,8.5 nM,3 of 3
L30N+N35L+P101A,11 nM,3 of 3
K24H+S58V+E61C,43 nM,3 of 3
N37E+E61M,28 nM,3 of 3
E32L+V39A+S103A,no signal,0 of 3
Q27V+Y31F+A40I,no signal,0 of 3
S62R+L100M+L102W,no signal,0 of 3
S33E+H98Q,5.0 nM,3 of 3
S25F+S28K+R99G,4.7 nM,3 of 3
Y31W+L100N+L102N,500 µM,1 of 3
L30C+R34T+T59V,150 nM,3 of 3
S26F+S28T+R99T,71 nM,3 of 3
S33R+N37D+Q95N,160 nM,3 of 3
S58T+R60Q+S103E,580 µM,1 of 3
S38G+R60Y,no signal,0 of 3
K24F+T59M+R60F,no signal,0 of 3
S28D+S58A+Q95S,830 nM,3 of 3
S25G+Q27R+T59P,330 µM,3 of 3
S26H+R99N+L100R,96 µM,1 of 3
S33I+N35G+S103P,1.4 µM,2 of 3
N35I+R60V,40 µM,2 of 3
V39D+S62T+Q95E,8.0 µM,1 of 3
S25H+N37D+S58T,22 nM,3 of 3
N37T+A40G+L100M,85 µM,1 of 3
V29M+R60Q+L100R,7.2 µM,1 of 3
Q27K+L100S,970 nM,3 of 3
S38L+W56M+S58L,6.5 µM,1 of 3
S26P+A40F+P101M,no signal,0 of 3
L30Q+N37F+S62V,11 nM,3 of 3
Q27G+R34Q+E61I,6.0 nM,3 of 3
K36H+A57E+H98P,120 µM,2 of 3
V39E+H98R+S103P,no signal,0 of 3
S26V+Q27C+N35Y,no signal,0 of 3
R34D+S38N+A57W,22 µM,1 of 3

Excerpt, the final 9 entries:

changes,Kd,detected
Q27K+L100S,970 nM,3 of 3
S38L+W56M+S58L,6.5 µM,1 of 3
S26P+A40F+P101M,no signal,0 of 3
L30Q+N37F+S62V,11 nM,3 of 3
Q27G+R34Q+E61I,6.0 nM,3 of 3
K36H+A57E+H98P,120 µM,2 of 3
V39E+H98R+S103P,no signal,0 of 3
S26V+Q27C+N35Y,no signal,0 of 3
R34D+S38N+A57W,22 µM,1 of 3

The measurements come from Engelhart et al. 2022 (doi:10.1038/s41597-022-01779-4) through the FLAb antibody collection.